# Earlier results, collected in patent US8404449B2, “Stochastic sensing through covalent interactions” (dated 2013).
# Conditions: given in comparison; for DTT the first pKa; cited from earlier work
substance,measurement,value
2-mercaptoethanol,pKa,9.5
